pIC50: −log10 of the molar value. Like-named read-outs stand apart in the source and are kept apart here.
Assays:
VEGFR2 = VEGFR2 (Homo sapiens, UniProt P35968); conditions: read-out: VEGFR2 IC50_μM, reported IC50 to VEGFR2, cited from earlier work
VEGFR2 and FGFR1 = test: Selection of compounds that selectively inhibit both VEGFR2 and FGFR1 (average relative IC50); type: biochemical;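 also: relative IC50 is the IC50 for VEGFR2 or FGFR1 divided by the next-lowest IC50 reported against any target gene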
any gene target = conditions: cited from earlier work; for pIC50: read-out: Min IC50_μM, next lowest IC50 value to any gene target
FGFR1 = FGFR1 (Homo sapiens, UniProt P11362); conditions: read-out: FGFR1 IC50_μM; reported IC50 to FGFR1; cited from earlier work
[1] = Table 3, selective inhibitors of VEGFR2

The chains behind the UniProt entries cited, without tags or fusion partners. Residues count along the entry.
UniProt P35968, 20-1356 limits assumed: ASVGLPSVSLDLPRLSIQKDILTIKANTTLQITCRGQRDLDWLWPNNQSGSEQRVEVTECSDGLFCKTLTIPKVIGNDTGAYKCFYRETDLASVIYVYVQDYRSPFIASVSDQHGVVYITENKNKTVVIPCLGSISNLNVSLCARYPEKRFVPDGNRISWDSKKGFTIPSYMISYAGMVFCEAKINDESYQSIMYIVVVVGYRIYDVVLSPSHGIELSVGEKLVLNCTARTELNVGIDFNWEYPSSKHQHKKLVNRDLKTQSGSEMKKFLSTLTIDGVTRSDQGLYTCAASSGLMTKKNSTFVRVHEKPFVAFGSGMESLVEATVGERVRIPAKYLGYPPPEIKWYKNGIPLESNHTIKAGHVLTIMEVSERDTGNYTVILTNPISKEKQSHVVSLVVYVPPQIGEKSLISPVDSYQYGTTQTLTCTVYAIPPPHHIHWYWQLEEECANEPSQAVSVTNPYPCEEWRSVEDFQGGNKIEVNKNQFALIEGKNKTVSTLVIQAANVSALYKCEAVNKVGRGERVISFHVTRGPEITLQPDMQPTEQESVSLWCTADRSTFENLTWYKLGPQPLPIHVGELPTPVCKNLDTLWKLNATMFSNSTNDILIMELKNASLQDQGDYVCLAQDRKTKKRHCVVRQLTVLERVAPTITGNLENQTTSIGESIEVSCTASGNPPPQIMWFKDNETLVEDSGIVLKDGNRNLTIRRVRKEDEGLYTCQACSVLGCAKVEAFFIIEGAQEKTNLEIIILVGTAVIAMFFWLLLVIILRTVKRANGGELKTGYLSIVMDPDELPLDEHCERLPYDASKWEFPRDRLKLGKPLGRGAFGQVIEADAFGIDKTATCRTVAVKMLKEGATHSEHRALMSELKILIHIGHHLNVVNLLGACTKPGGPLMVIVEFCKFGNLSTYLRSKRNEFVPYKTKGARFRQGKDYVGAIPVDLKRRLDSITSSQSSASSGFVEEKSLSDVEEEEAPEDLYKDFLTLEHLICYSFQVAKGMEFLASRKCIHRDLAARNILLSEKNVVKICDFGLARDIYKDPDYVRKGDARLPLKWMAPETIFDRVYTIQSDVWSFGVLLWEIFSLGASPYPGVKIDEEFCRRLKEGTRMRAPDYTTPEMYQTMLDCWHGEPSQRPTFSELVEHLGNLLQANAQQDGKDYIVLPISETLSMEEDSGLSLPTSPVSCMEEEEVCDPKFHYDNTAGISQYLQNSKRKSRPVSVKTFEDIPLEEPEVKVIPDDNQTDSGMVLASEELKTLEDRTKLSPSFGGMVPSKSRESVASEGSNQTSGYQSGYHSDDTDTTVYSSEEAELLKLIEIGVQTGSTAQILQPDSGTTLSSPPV
UniProt P11362, 22-822 limits assumed: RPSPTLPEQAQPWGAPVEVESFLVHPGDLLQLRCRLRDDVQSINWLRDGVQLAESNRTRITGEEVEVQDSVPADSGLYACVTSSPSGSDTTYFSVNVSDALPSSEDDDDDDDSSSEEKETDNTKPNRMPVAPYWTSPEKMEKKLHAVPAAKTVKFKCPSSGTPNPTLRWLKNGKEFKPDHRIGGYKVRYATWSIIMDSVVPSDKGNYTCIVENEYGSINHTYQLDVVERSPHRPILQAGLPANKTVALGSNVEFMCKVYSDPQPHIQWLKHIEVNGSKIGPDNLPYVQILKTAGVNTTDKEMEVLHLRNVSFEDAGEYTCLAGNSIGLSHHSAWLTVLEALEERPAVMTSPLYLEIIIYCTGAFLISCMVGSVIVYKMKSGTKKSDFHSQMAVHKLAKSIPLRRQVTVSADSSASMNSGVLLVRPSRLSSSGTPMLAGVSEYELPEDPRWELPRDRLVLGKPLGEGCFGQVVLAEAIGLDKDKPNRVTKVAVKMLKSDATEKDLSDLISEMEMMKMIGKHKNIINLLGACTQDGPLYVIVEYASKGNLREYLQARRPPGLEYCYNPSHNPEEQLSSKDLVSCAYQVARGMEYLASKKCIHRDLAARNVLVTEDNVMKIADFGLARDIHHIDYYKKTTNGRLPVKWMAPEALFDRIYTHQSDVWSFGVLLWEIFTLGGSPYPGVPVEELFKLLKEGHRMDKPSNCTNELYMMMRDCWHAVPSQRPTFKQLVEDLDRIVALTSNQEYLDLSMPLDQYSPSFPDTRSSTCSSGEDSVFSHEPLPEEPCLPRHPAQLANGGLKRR

Row | SMILES | pIC50 (VEGFR2; [1]) | avg rIC50 (VEGFR2 and FGFR1) | pIC50 (any gene target; Table 3) | other results
1 | COc1cc2c(Nc3c(F)cc(Br)cc3F)ncnc2cc1OCCn1ccnn1 | 7.70 | 3.0 | 7.70 | IC50 (any gene target; read-out: min IC50 μM, lowest reported IC50 to any gene target): 0.02 µM
2 | CCN(CC)CCCCCNc1cc2nc(NC(=O)NC(C)(C)C)c(-c3cc(OC)cc(OC)c3)cc2cn1 |  | 1.5 |  | 
3 | Cn1cc(-c2cnn3c(N)c(-c4ccc(NC(=O)Nc5cccc(C(F)(F)F)c5)cc4)cnc23)cn1 |  |  |  | pIC50 (VEGFR2): 9.15; pIC50 (any gene target): 8.52
4 | COc1cc2c(Nc3ccc(Cl)c(Cl)c3)ncnc2cc1OCc1nc2c(s1)CN(C)CC2 | 7.30 |  | 7.30 | 
5 | COc1cc(OC)cc(-c2cc3cnc(NCCCCO)cc3nc2NC(=O)NC(C)(C)C)c1 |  | 1.4 |  | 
6 | CONC(=O)c1cc(Nc2ncnn3cc(-c4nnc(C(C)C)o4)c(C(C)C)c23)c(F)cc1F [compound 11442803] |  |  |  | pIC50 (FGFR1): 9.00
7 | CCN1CCC2N=C(COc3cc4ncnc(Nc5ccc(Cl)c(Cl)c5)c4cc3OC)SC2C1 (stereo not shown) | 7.30 |  | 7.30 | 

Source: patent US20240156825A1
